The text below walks through data of ChEMBL document CHEMBL1138049, “Evaluation of small-molecule modulators of the luteinizing hormone/choriogonadotropin and thyroid stimulating hormone receptors: structure-activity relationships and selective binding patterns” (J Med Chem, 2006).

Chains of the proteins cited; added tags and fusions are not shown. Lines headed by an entry give the natural chain unless they say otherwise; changes in a name come on top.
UniProt P22888: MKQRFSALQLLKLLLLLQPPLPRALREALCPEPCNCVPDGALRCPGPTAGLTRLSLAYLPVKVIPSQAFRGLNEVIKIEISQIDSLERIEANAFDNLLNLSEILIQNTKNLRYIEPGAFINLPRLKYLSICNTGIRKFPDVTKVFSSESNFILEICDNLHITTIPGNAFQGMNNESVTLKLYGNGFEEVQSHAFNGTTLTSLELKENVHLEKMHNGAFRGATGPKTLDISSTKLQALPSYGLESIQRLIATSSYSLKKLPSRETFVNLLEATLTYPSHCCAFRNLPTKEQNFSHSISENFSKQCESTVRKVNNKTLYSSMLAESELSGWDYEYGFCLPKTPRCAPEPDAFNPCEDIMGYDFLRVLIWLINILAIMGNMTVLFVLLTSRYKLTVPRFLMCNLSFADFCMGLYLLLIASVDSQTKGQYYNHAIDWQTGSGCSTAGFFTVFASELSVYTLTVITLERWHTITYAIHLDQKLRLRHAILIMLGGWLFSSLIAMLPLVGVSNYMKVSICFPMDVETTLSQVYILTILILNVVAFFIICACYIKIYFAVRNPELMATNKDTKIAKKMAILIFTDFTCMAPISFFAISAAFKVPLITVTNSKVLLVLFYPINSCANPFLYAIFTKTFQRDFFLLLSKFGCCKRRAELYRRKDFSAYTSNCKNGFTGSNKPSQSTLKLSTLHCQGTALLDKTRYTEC

The target of the test is Lutropin-choriogonadotropic hormone receptor (Homo sapiens) (UniProt P22888). In words: Agonist activity at LHCGR expressed in HEK293 EM cells measured by intracellular cAMP accumulation relative to LH. It is filed as functional, cell-based. Put shortly: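 Human LHCGR stably expressed in HEK 293 EM cells, cultured 48 h, then incubated 1 h in serum-free DMEM with 1 mM IBMX and compound (0-100 µM) at 5% CO₂. Cells were lysed and cAMP measured by enzyme immunoassay. EC50 and 95% CI came from dose-response curves. Efficacy is % of maximal response to human LH (1000 ng/ml). Two independent experiments, each in duplicate.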

Consider `CSc1nc(-c2cccc(F)c2)c2c(N)c(C(=O)NC(C)(C)C)sc2n1`, for which the Efficacy turned out to be 51.1%.
